Values of other authors in patent publication US20010018095A1, “Method of forming a membrant, especially a latex or polymer membrane, including multiple discrete layers” (priority 1987, published 2001).

Settings: candidate solvents for polyurethane and biocide; cited from earlier work

**Q.** For `CN(C)C=O` [Dimethyl formamide (DMF), Dimethyl formamide], which “Hydrogen Bonding” value is on record?
**A.** The value was “medium”.
